From US20030203082A1, “Inhibition of non-enzymatic browning” (Givaudan SA, priority 2002, published 2003)

Conditions: after 120 minutes at 85° C.; inhibitor 7 mM (resin-bound: theoretical 7 mM)

In the case of `SCCCS` [free inhibitor, 1,3-propane dithiol], the “browning of the juice (absorbance at 420 nm; control after 175 minutes considered as 100% browning)” value is reported as 10%.
